# Results as given in PubChem BioAssay AID686971 (National Center for Advancing Translational Sciences (NCATS), 2013).
# The entries are a selection whose mix differs from that of the whole data set. Results filed as inconclusive are left out. Activity calls are given as the source filed them. The call rests on the fitted dose curve; in most records, active means well fitted cell-killing curve with a large enough effect; inconclusive means small, poorly fitted or top-dose-only effect, or effect the other way, or another doubt; inactive means no such curve, though single readings can be large or run the other way.
# Assay: qHTS for induction of synthetic lethality in tumor cells producing 2HG: qHTS for the HT-1080-IDH1KD cell line;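 on activity, negative = toxicity: 0% = DMSO wells and -100% = cell-free medium wells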
# Details: HT-1080 IDH1 knockdown viability, ATP luminescence, 48 h; series mostly up to 46.1 µM; activity, negative = toxicity: at the top concentration
# Potency means the concentration at half of the fitted maximal effect.
SMILES,"activity, negative = toxicity",Potency
Cc1ccc(NP(=O)(Oc2ccccc2)Oc2ccccc2)nc1,inactive: -4.87%,
CCc1nc2c(n1)c1c(non1O)c1c2no[n+]1[O-],,active: 20.6 µM
O=[N+]([O-])c1cccc2n[nH]nc12,inactive: -8.21%,
CC(=O)N1C2C3N(C(C)=O)C1C1N(C(C)=O)C(C(N1C(C)=O)N3C(C)=O)N2C(C)=O,inactive: 11.9%,
CCN(/C(=N/P(=O)(N1CCOCC1)N1CCOCC1)N1CCOCC1)c1ccc(OC)cc1,inactive: 18.7%,
Nc1ccc([As](=O)(O)c2ccc(N)cc2)cc1,inactive: 11.5%,
c1cc(-c2nn[nH]n2)ccc1-c1nn[nH]n1,inactive: -7.34%,
CC1CCN(C(=O)Oc2c(Cl)cc(Cl)c3cccnc23)CC1,inactive: -2.22%,
CC(C)=N/N=C(\N)N[N+](=O)[O-],inactive: 3.69%,
CC(C)c1nc(Nc2ccccc2)n(P(=O)(N(C)C)N(C)C)n1,inactive: 1.87%,
CN(C)C(=O)OCCc1n(C)cc[n+]1C,inactive: 11.6%,
O=P1(N(CCCl)CCCl)OCCCS1 (centres undefined),inactive: 6.48%,
O=C(Nc1cc([As](=O)(O)O)ccc1O)c1ccccc1,inactive: 8.32%,
O=[N+]([O-])c1ncn(CCn2ncnc2[N+](=O)[O-])n1,inactive: -8.38%,
CC(C)(C)C(=O)NC(Sc1ccncn1)C(Cl)(Cl)Cl (centres undefined),inactive: -0.659%,
O=C(O)CNc1ccc([As](=O)(O)O)cc1,inactive: 5.16%,
O=[N+]([O-])c1cccc(NC2=NCC(CBr)S2)c1 (centres undefined),inactive: 3.38%,
COC(=O)C1(C)COP(=O)(Nc2ccccc2)OC1 (centres undefined),inactive: 5.73%,
CN(C)P(=O)(N(C)C)n1c(Nc2ccccc2)nnc1-c1ccccc1,inactive: -16.7%,
O=C(O)c1ccccc1[As](=O)(O)O,inactive: 9.91%,

SMILES,"activity, negative = toxicity",Potency
CC(=O)Nc1ccc([As](=O)(O)O)cc1,inactive: 15.6%,
CCCC1OP(N)(=O)OCC1CC (centres undefined),inactive: 0.991%,
CCOP(=O)(Nc1ccccc1)OCC,inactive: 16.4%,
Cc1cc(SC(NC(=O)c2ccc(F)cc2)C(Cl)(Cl)Cl)ncn1 (centres undefined),inactive: 9.26%,
Cc1ccc(NP(=O)(Oc2ccccc2F)Oc2ccccc2F)nc1,inactive: 20%,
CN(C(=O)Cc1ccc(Cl)c(Cl)c1)[C@H]1CCCC[C@@H]1N1CCCC1,inactive: -26.5%,
Nc1cccc2ccc([As](=O)(O)O)cc12,inactive: 1.28%,
CCN(N=Nc1nonc1N)c1nonc1N,inactive: -0.361%,
Cc1ccc(N/C(=N/P(=O)(N2CCOCC2)N2CCOCC2)N2CCOCC2)cc1,inactive: 15.3%,
NC(=O)c1cc([N+](=O)[O-])cc([N+](=O)[O-])c1N,inactive: 5.65%,
Clc1ccc(Cl)c(NC2=NCC(CBr)S2)c1 (centres undefined),inactive: 3.46%,
CN1CCCC(OC(=O)C(c2ccccc2)c2ccccc2)C1 (centres undefined),inactive: -1.39%,
COc1ccccc1OP(=O)(Nc1ccc(C)cn1)Oc1ccccc1OC,inactive: -4.24%,
Cc1ccc(OP(=O)(Nc2nccs2)Oc2ccc(C)cc2)cc1,inactive: -0.892%,
Oc1ccccc1CNc1ccccn1,inactive: 0.862%,
O=C(NC(Sc1ccncn1)C(Cl)(Cl)Cl)c1ccccc1 (centres undefined),inactive: -8.13%,
CC(C)CC(=O)NC(Sc1ccc(Cl)cc1)C(Cl)(Cl)Cl (centres undefined),inactive: 4.52% [at 9.24 µM],
Nc1cc(N)c2nonc2c1[N+](=O)[O-],inactive: 1.68%,
O=[N+]([O-])C1C(O)C(O)C([N+](=O)[O-])C(O)C1O (centres undefined),inactive: 16.3%,
